For one assay, the target named is T1, hFPR1 (Homo sapiens, UniProt P21462, N192K/R163H/V101L).
T1 sequence (P21462 1-350 V101L/R163H/N192K): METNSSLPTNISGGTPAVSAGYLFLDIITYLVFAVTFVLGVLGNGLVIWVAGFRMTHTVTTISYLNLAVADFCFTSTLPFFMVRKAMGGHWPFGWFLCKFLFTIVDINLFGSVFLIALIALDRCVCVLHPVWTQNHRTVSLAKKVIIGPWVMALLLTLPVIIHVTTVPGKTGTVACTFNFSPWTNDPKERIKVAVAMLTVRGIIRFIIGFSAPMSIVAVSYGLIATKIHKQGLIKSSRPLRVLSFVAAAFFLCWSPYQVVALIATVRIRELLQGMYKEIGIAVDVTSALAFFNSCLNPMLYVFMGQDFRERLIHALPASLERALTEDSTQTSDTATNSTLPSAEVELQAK
Description: Single-cell resolution Ca2+ imaging, hFPR1. The assay is classed as cell-based. The following applies: 9 μM fMLF.

The next assay concerns the target T2, hFPR2 (Homo sapiens, UniProt P25090).
T2 sequence (P25090 1-351): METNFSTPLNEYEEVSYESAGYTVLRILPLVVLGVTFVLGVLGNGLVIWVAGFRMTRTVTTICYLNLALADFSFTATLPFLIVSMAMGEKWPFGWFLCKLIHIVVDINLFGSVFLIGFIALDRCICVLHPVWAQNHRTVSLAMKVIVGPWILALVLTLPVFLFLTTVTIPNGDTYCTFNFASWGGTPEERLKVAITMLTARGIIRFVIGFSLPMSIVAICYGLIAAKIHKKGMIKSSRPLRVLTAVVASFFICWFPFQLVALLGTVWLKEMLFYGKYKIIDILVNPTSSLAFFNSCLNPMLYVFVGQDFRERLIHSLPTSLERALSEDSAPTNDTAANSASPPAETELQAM
As to the kind of experiment: Single-cell resolution Ca2+ imaging, hFPR2. Format: cell-based. The following applies: 9 μM fMLF; single-cell Fura-2 Ca2+ imaging.

As to “N-formylmethionine-leucine-phenylalanine [fMLF]”, the “number of responding cells” value at hFPR1 (of 364 cells transfected with hFPR1, single-cell Ca2+ imaging) is recorded as 258 cells. Moreover, the “activation by fMLF (in words)” value at hFPR1 (single-cell Fura-2 Ca2+ imaging) and on hFPR2 was “could be activated” throughout.
